According to ChEMBL document CHEMBL1131500, “Novel biologically active nonpeptidic inhibitors of myristoylCoA:protein N-myristoyltransferase” (J Med Chem, 1998):

Molecular target: T1, Glycylpeptide N-tetradecanoyltransferase (Candida albicans (strain SC5314 / ATCC MYA-2876) (Yeast), UniProt P30418)
T1 sequence (P30418 whole entry): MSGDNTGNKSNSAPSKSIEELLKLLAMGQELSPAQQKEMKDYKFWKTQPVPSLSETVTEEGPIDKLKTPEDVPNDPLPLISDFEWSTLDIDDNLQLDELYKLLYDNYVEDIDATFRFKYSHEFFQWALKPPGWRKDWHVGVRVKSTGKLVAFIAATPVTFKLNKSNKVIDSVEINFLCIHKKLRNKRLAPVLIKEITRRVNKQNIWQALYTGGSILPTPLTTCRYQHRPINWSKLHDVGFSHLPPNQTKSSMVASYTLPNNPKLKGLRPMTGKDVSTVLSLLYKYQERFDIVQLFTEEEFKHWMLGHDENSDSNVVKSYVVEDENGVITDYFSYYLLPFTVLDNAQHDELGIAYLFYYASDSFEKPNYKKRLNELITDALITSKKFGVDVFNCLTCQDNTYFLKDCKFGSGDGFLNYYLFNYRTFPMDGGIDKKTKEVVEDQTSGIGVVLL
Assay: The Compound was tested for the inhibition potency against Candida albicans N-myristoyltransferase (NMT) and reported as apparent Ki

Ki: 0.031 app
Structure (SMILES): Cc1nccn1CCCCc1ccc(CC(=O)N[C@@H](CO)C(=O)N[C@@H](CCCCN)C(=O)NCCC2CCCCC2)cc1 [SC-58272]
